Results reported in US20190300576A1 (MIT, published 2019).

Amino acid sequences for entries named in this document (tags omitted). A change or cut given only in a name is not applied to a line headed by its entry. Residues count along the entry.
UniProt Q00987, 25-109: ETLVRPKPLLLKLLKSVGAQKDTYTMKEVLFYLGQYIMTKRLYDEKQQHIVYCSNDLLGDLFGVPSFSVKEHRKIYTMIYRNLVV
UniProt P00760, 24-246: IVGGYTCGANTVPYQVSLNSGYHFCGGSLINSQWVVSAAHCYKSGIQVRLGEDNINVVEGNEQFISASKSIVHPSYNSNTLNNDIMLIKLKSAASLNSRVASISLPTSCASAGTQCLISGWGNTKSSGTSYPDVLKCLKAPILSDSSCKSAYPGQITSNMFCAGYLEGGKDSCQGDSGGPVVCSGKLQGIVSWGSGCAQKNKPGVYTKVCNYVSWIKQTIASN
UniProt P12071: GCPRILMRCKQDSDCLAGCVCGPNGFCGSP

Assays:
SUMO-^25-109MDM2 [1] = biological target: T1, SUMO-^25-109MDM2 (UniProt Q00987 25-109); assay: BLI, peptide on streptavidin sensors, global fit
T1 construct: range 25-109; Expressed in Rosetta (DE3) pLysS cells, MW=23 297 Da, used with the SUMO tag on; not shown: SUMO fusion tag (protein purified on Ni-NTA)

SUMO-^25-109MDM2 [2] = biological target: T1, SUMO-^25-109MDM2; assay: BLI, biotinylated peptide immobilized
Human ^1-137MDMX = biological target: T2, Human ^1-137MDMX (human, UniProt O15151 1-137); assay: BLI, peptide on streptavidin sensors, global fit
T2 construct: range 1-137; Bought protein
T2 sequence (looked up): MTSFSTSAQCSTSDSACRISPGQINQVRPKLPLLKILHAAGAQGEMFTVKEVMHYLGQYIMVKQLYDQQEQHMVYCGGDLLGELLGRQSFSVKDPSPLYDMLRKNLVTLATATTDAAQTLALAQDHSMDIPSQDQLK

SUMO-^25-109MDM2 [3] = biological target: T1, SUMO-^25-109MDM2; assay: BLI, biotinylated peptide immobilized; remark: listed apart in the source
[4] = biological target: Trypsin from bovine pancreas (bovine, UniProt P00760 24-246); assay: Trypsin inhibition assay (legend paragraph 120, which names the trypsin binders '59 and 60')
SUMO-^25-109MDM2 [5] = biological target: T1, SUMO-^25-109MDM2; assay: BLI, determined for 60 using biotinylated 60a

B1: peptide 1a (peptide)
peptide: LTFQHFWAELTSK
modifications: N-terminal biotinylation; C-terminal amide
**Q.** How did the Kd (SUMO-^25-109MDM2 [1]) turn out when B1 was run?
**A.** 45 nM

B2: peptide 2a (peptide)
peptide: LTFQHYWAELTSK
modifications: N-terminal biotinylation; C-terminal amide
**Q.** How did the Kd (SUMO-^25-109MDM2 [1]) turn out when B2 was run?
**A.** 59 nM

**Q.** What about the Kd (SUMO-^25-109MDM2 [2]) of the same binder?
**A.** 62 nM

B3: peptide 3a (peptide)
peptide: LTFPHYWAELTSK
modifications: N-terminal biotinylation; C-terminal amide
**Q.** B3 was tested. Which Kd (SUMO-^25-109MDM2 [1]) did it give?
**A.** 86 nM

B4: peptide 5a (peptide)
peptide: LTFEHYWAQFTSK
modifications: N-terminal biotin label; C-terminal amide
**Q.** For B4, which Kd (SUMO-^25-109MDM2 [1]) is on record?
**A.** 39 nM

**Q.** What about the Kd (SUMO-^25-109MDM2 [2]) of the same binder?
**A.** 36 nM

B5: peptide 10a (peptide)
peptide: LTFEHYLAQLTSK
modifications: as printed LT(F2f)EHY(Hexa)AQ(Cba)TSK; N-terminal biotin label; C-terminal amide
**Q.** B5 was tested. Which Kd (Human ^1-137MDMX) did it give?
**A.** 26 nM

B6: peptide 14a (peptide)
peptide: LTFEHYLAQFTSK
modifications: as printed LT(F3f)EHY(Hexa)AQ(Ff)TSK; N-terminal biotin label; C-terminal amide
**Q.** B6 was tested. Which Kd (SUMO-^25-109MDM2 [1]) did it give?
**A.** 3.2 nM

B7: peptide 15a (peptide)
peptide: LTFEHYLAQFTSK
modifications: as printed LT(F2f)EHY(Hexa)AQ(Ff)TSK; N-terminal biotin label; C-terminal amide
**Q.** How did the Kd (SUMO-^25-109MDM2 [1]) turn out when B7 was run?
**A.** 3.8 nM

B8: peptide 18a (peptide)
peptide: LTFEHYLAQFTSK
modifications: as printed LT(F2f)EHY(Hexa)AQ(F3f)TSK; N-terminal biotin label; C-terminal amide
**Q.** For B8, which Kd (SUMO-^25-109MDM2 [1]) is on record?
**A.** 7.6 nM

B9: peptide 21a (peptide)
peptide: LTFEHYLAQFTSK
modifications: as printed LT(F2f)EHY(Hexa)AQ(Homof)TSK; N-terminal biotin label; C-terminal amide
**Q.** Which Kd (SUMO-^25-109MDM2 [1]) does the source give for B9 here?
**A.** 8.9 nM

B10: peptide 23a (peptide)
peptide: LTFEHYLAQFTSK
modifications: as printed LT(F3f)EHY(Hexa)AQ(F3f)TSK; N-terminal biotin label; C-terminal amide
**Q.** How did the Kd (SUMO-^25-109MDM2 [1]) turn out when B10 was run?
**A.** 15 nM

B11: peptide 24a (peptide)
peptide: LTFEHYLAQFTSK
modifications: as printed LT(F3f)EHY(Hexa)AQ(F5f)TSK; N-terminal biotin label; C-terminal amide
**Q.** Which Kd (SUMO-^25-109MDM2 [1]) does the source give for B11 here?
**A.** 16 nM

B12: peptide 26a (peptide)
peptide: LTFEHYWAQFTSK
modifications: as printed LT(F2f)EHYWAQ(F3f)TSK; N-terminal biotin label; C-terminal amide
**Q.** How did the Kd (SUMO-^25-109MDM2 [1]) turn out when B12 was run?
**A.** 23 nM

B13: peptide 27a (peptide)
peptide: LTFEHYFAQLTSK
modifications: as printed LT(F2f)EHY(Napa)AQ(Cba)TSK; N-terminal biotin label; C-terminal amide
**Q.** For B13, which Kd (SUMO-^25-109MDM2 [1]) is on record?
**A.** 23 nM

**Q.** What about the Kd (SUMO-^25-109MDM2 [3]) of the same binder?
**A.** 24 nM

B14: peptide 28a (peptide)
peptide: LTFEHYFAQFTSK
modifications: as printed LT(F2f)EHY(Napa)AQ(Ff)TSK; N-terminal biotin label; C-terminal amide
**Q.** With B14 as the binder, how does the Kd (SUMO-^25-109MDM2 [1]) read?
**A.** 96 nM

**Q.** What about the Kd (SUMO-^25-109MDM2 [3]) of the same binder?
**A.** 83 nM

B15: EETI-II (58) (peptide, UniProt P12071 1-28, looked up)
chain: GCPRILMRCKQDSDCLAGCVCGPNGFCG
modifications: oxidatively folded (disulfide bridges); C-terminal amide
notes: also called EETI-II knottin
**Q.** Which Kd [4] does the source give for B15 here?
**A.** 1.2 nM

B16: pDI-Sulfone (60) (peptide)
peptide: LTFCHYWAQLCSK
modifications: the two cysteines joined by perfluorosulfone macrocyclization; C-terminal amide
notes: Obtained by perfluorosulfone macrocyclization of pDI-cysteine peptide; no label; also called PDI-Sulfone peptide
**Q.** B16 was tested. Which Kd (SUMO-^25-109MDM2 [5]) did it give?
**A.** 22 nM

B17: peptide 11a (peptide)
peptide: LTFEHYWAQLTSK
modifications: as printed LT(F2f)EHYWAQ(Cba)TSK; N-terminal biotin label; C-terminal amide
**Q.** How did the Kd (Human ^1-137MDMX) turn out when B17 was run?
**A.** 33 nM
